Measured values: EP0450097B1, “BENZOHETEROCYCLIC COMPOUNDS” (OTSUKA PHARMACEUTICAL CO., LTD., priority 1989, dated 1991)
pIC50: −log10 of the molar value.

The chains behind the UniProt entries cited, without tags or fusion partners.
UniProt Q00788, whole entry: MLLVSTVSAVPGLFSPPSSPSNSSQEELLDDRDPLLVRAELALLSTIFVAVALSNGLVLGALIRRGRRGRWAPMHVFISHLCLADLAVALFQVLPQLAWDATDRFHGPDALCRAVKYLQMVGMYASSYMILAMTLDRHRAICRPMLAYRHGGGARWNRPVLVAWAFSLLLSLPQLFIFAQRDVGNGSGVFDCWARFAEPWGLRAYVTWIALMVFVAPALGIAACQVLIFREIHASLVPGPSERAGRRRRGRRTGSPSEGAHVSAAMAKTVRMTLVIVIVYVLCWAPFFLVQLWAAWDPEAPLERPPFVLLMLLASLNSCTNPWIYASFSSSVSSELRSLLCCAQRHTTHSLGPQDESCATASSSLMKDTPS

Target: V₂ receptor (Rattus norvegicus, UniProt Q00788)
Assay: V₂ receptor binding assay ([³H]-Arg-vasopressin, rat kidney plasma membrane preparations)
Conditions: 4°C for 3 hours

pIC50 | Compound | also measured
7.15 | Cc1ccccc1C(=O)Nc1ccc(C(=O)N2CCCSc3ccccc32)cc1 | –
6.74 | CC(=O)OC1CCN(C(=O)c2ccc(NC(=O)c3ccccc3C)cc2)c2ccccc21 (stereo not shown) | –
6.77 | CNC1(CO)CCCN(C(=O)c2ccc(NC(=O)c3ccccc3C)cc2)c2ccccc21 (stereo not shown) | –
7.09 | CCN1CCN(C(=O)c2ccc(NC(=O)c3cccc(C)c3C)cc2)c2ccccc2C1 | –
6.85 | CN(C)C1CCN(C(=O)c2ccc(NC(=O)c3ccccc3Cl)cc2)c2ccccc2C1 (stereo not shown) | –
7.41 | O=C(Nc1ccc(C(=O)N2CCCC(=NO)c3ccccc32)cc1)c1cc(Cl)cc(Cl)c1 | –
6.74 | CC(C)N1CCN(C(=O)c2ccc(NC(=O)c3cc(Cl)cc(Cl)c3)cc2)c2ccccc2C1 | –
7.23 | O=C(O)COC1CCCN(C(=O)c2ccc(NC(=O)c3ccccc3Cl)cc2)c2ccccc21 (stereo not shown) | –
6.96 | CN1CCN(C(=O)c2ccc(NC(=O)c3cccc(Cl)c3)cc2)c2ccccc2C1 | –
7.05 | O=C(Nc1ccc(C(=O)N2CCCCc3ccccc32)cc1)c1ccc([N+](=O)[O-])cc1Cl | –
6.14 | O=C(CN1C(=O)c2ccccc2C1=O)Nc1ccc(C(=O)N2CCCCc3ccccc32)cc1 | –
7.20 | CCOC(=O)COC1CCCN(C(=O)c2ccc(NC(=O)c3ccc(Cl)cc3Cl)cc2)c2ccccc21 (stereo not shown) | –
6.54 | O=C(Nc1ccc(C(=O)N2CCCCc3ccccc32)cc1)c1ccncc1 | –
7.17 | CN1CCN(C(=O)c2ccc(NC(=O)c3cc(Cl)cc(Cl)c3Cl)cc2)c2ccccc2C1 | –
7.55 | C=CCNC1CCN(C(=O)c2ccc(NC(=O)c3cc(Cl)cc(Cl)c3)cc2)c2ccccc2C1 (stereo not shown) | –
6.35 | CC(=O)Nc1ccc(C(=O)Nc2ccc(C(=O)N3CCCCc4ccccc43)cc2)c(Cl)c1 | –

pIC50 | Compound | also measured
8.40 | COC1CCCN(C(=O)c2ccc(NC(=O)c3ccc(Cl)cc3Cl)cc2)c2ccccc21 (stereo not shown) | –
7.21 | Cc1ccccc1NC(=O)Nc1ccc(C(=O)N2CCCCc3ccccc32)cc1 | –
7.49 | COc1cccc(C(=O)Nc2ccc(C(=O)N3CCCC(N(C)C)c4ccccc43)cc2)c1 (stereo not shown) | –
6.26 | O=C(O)COc1ccccc1C(=O)Nc1ccc(C(=O)N2CCCCc3ccccc32)cc1 | –
6.47 | Cc1cc(C(=O)N2CCN(C)Cc3ccccc32)ccc1NC(=O)c1ccc(Cl)cc1Cl | –
6.39 | Cc1ccccc1C(=O)Nc1ccc(C(=O)N2CCCN(C)Cc3ccccc32)cc1 | –
6.92 | O=C(Nc1ccc(C(=O)N2CCCC(N3CCOCC3)c3ccccc32)cc1)c1ccccc1Cl (stereo not shown) | –
6.40 | CNCC1(O)CCCN(C(=O)c2ccc(NC(=O)c3ccccc3C)cc2)c2ccccc21 (stereo not shown) | –
6.42 | Cc1ccccc1C(=O)Nc1ccc(C(=O)N2CCSc3ccccc32)cc1 | –
7.25 | CN(C)CC1CCN(C(=O)c2ccc(NC(=O)c3cc(Cl)cc(Cl)c3)cc2)c2ccccc21 (stereo not shown) | –
7.20 | CC(=O)OC1CCCN(C(=O)c2ccc(NC(=O)c3ccccc3Cl)cc2)c2ccccc21 (stereo not shown) | –
6.22 | CC(C)(C)NCC(=O)Nc1ccc(C(=O)N2CCCCc3ccccc32)cc1 | –
6.48 | O=C(Nc1ccc(C(=O)N2CCOCc3ccccc32)cc1)C1CCCCC1 | –
7.57 | CCN(C)C1CCN(C(=O)c2ccc(NC(=O)c3cc(Cl)cc(Cl)c3)cc2)c2ccccc21 (stereo not shown) | –
6.64 | NCc1ccc(NCC(=O)Nc2ccc(C(=O)N3CCCCc4ccccc43)cc2)cc1 | –
7.09 | Nc1ccc(C(=O)Nc2ccc(C(=O)N3CCCCc4ccccc43)cc2)c(Cl)c1 | –

The next lines start with the compound.

Compound | pIC50 | also measured
Cc1ccccc1C(=O)Nc1ccc(C(=O)N2CCCC(N(C)CCCO)c3ccccc32)cc1 (stereo not shown) | 7.52 | –
CC(=O)OCCCN(C)C1CCCN(C(=O)c2ccc(NC(=O)c3ccccc3C)cc2)c2ccccc21 (stereo not shown) | 7.34 | –
Cc1ccccc1C(=O)Nc1ccc(C(=O)N2CCCC(N(C)CC(=O)O)c3ccccc32)cc1 (stereo not shown) | – | pIC50 (tested form: K salt): 6.60
O=C(Nc1ccc(C(=O)N2CCCc3cc(F)ccc32)cc1)c1cc(Cl)cc(Cl)c1 | 7.00 | –
Cc1ccccc1C(=O)Nc1ccc(C(=O)N2CCCC(O)c3c(C)cccc32)c(Cl)c1 (stereo not shown) | 7.66 | –
CCN(CC)CC(O)CN(C)C1CCCN(C(=O)c2ccc(NC(=O)c3ccccc3C)cc2)c2ccccc21 (stereo not shown) | 7.57 | –
COc1cc(C(=O)N2CCCC(N(C)C)c3ccccc32)ccc1NC(=O)c1ccccc1C (stereo not shown) | 7.32 | –
Cc1ccccc1C(=O)Nc1ccc(C(=O)N2CCCC(=NOS(=O)(=O)O)c3ccccc32)c(Cl)c1 | – | pIC50 (tested form: K salt): 6.40
CN1CCN(C(=O)c2ccc(NC(=O)c3cc(Cl)cc(Cl)c3)cc2)c2ccccc2C1 | – | pIC50 (tested form: HCl): 7.15
Cc1ccccc1C(=O)Nc1ccc(C(=O)N2CCCC(N(C)C)c3ccccc32)c(Cl)c1 (stereo not shown) | 7.74 | –
CC(=O)NCCCN(CC(=O)Nc1ccc(C(=O)N2CCCCc3ccccc32)cc1)c1ccccc1 | 6.54 | –
Cc1ccccc1C(=O)Nc1ccc(C(=O)N2CCCC(N(C)C)c3ccccc32)cc1O (stereo not shown) | 7.08 | –
Cc1ccccc1C(=O)Nc1ccc(C(=O)N2CCCC(NCCN(C)C)c3ccccc32)c(Cl)c1 (stereo not shown) | 8.22 | –
COc1cc(C(=O)N2CCC(N(C)C)c3ccccc32)ccc1NC(=O)c1ccccc1C (stereo not shown) | 7.66 | –
CCOc1cc(C(=O)N2CCCC(N(C)C)c3ccccc32)ccc1NC(=O)c1ccccc1C (stereo not shown) | 7.01 | –
COCC(O)CN(C)C1CCCN(C(=O)c2ccc(NC(=O)c3ccccc3C)cc2)c2ccccc21 (stereo not shown) | 7.23 | –
COc1cc(C(=O)N2CCCC(N(C)C)c3ccccc32)ccc1NC(=O)c1ccccc1Cl (stereo not shown) | 7.32 | –
Cc1ccccc1NC(=O)c1ccc(C(=O)N2CCCC(N(C)C)c3ccccc32)cc1 (stereo not shown) | 7.70 | –
CNC1CCCN(C(=O)c2ccc(NC(=O)c3ccccc3C)cc2Cl)c2ccccc21 (single isomer, unassigned) | 8.30 | –
O=C(COc1ccc2ccccc2c1)Nc1ccc(C(=O)N2CCCCc3ccccc32)cc1 | 6.31 | –
O=C(c1ccc(NS(=O)(=O)c2ccccc2Cl)cc1)N1CCCCc2ccccc21 | 6.00 | –
Cc1ccccc1C(=O)Nc1ccc(C(=O)N2CCCC(NC3CC3)c3ccccc32)c(Cl)c1 (stereo not shown) | 7.72 | –
Cc1ccccc1C(=O)Nc1ccc(C(=O)N2CCCC(N(C)C(=O)c3ccccc3)c3ccccc32)cc1 (stereo not shown) | 6.60 | –
O=C(c1ccc(N(C(=O)c2cc(Cl)cc(Cl)c2)C(=O)c2cc(Cl)cc(Cl)c2)cc1)N1CCCc2cc(F)ccc21 | 7.00 | –
COc1cc(C(=O)N2CCCC(N(C)C)c3ccccc32)ccc1NC(=O)c1cc(Cl)cc(Cl)c1Cl (stereo not shown) | 6.82 | –
CCOC(=O)COC1CCCN(C(=O)c2ccc(NC(=O)c3ccccc3C)cc2)c2ccccc21 (stereo not shown) | 7.70 | –
